Patent US20180185324A1, “NOVEL CANNABINOID COMBINATION THERAPIES FOR MULTIPLE MYELOMA (MM)” (ONE WORLD CANNABIS LTD, priority 2015, published 2018)

Tested on: RPMI8226 MM cells
Test: XTT viability of RPMI8226 cells, cannabinoids in combination with anti-MM drugs
Conditions: 48 hours; for viability of RPMI8226 cells, in combination with BTZ: as compared to BTZ alone (also CBD and THC alone); for viability of RPMI8226 cells, in combination with CFZ: as compared to CFZ alone (also CBD and THC alone); for viability of RPMI8226 cells, in combination with DEX: as compared to DEX alone; for viability of RPMI8226 cells, in combination with DOXO: as compared to DOXO or CBD: THC (1:1) alone; for viability of RPMI8226 cells, in combination with MEL: as compared to DOXO, MEL or CBD: THC (1:1) alone

SMILES | viability of RPMI8226 cells, in combination with BTZ | viability of RPMI8226 cells, in combination with CFZ | viability of RPMI8226 cells, in combination with DEX | viability of RPMI8226 cells, in combination with DOXO | viability of RPMI8226 cells, in combination with MEL
C=C(C)[C@@H]1CCC(C)=C[C@H]1c1c(O)cc(CCCCC)cc1O [CBD, cannabidiol] | decreased significantly | decreased significantly | not increased their toxicity effect | no increased toxicity | no increased toxicity
CCCCCc1cc(O)c2c(c1)OC(C)(C)[C@@H]1CCC(C)=C[C@@H]21 [THC, Tetrahydrocannabinol] | no observable effect | no observable effect | not increased their toxicity effect | no increased toxicity | no increased toxicity
